Assay results reported in patent publication US8455440B2, “Combination anticoagulant therapy with a compound that acts as a factor Xa inhibitor” (Millennium Pharmaceuticals, Inc., priority 2007, dated 2013).

System: venous thromboembolism (VTE)
Test: Prospective randomized trial for prevention of venous thromboembolic events after total knee replacement
Conditions: Enoxaparin 30 mg bid

Major Bleeds %: 2.3%
Substance: Enoxaparin [reference compound]
